# Test results as given in PubChem BioAssay AID602405 (Broad Institute, 2012).
# The entries are a selection whose mix differs from that of the whole data set. The source made the active and inactive calls. No stated cut-off is given here; in the data, active means inhibition above about 16% (passing the limit was not always enough); inconclusive means no clear call, values can overlap the other calls; inactive means below that.
# System: UDP-N-acetylbacillosamine N-acetyltransferase PglD (Campylobacter jejuni)
# Experiment: C. jejuni PglD acetyltransferase inhibitors, primary screen, biochemical, DTNB colorimetric, single point (AID 602405)
# Settings: purified PglD enzyme, DTNB colorimetric CoA detection; at 12.5 µM; hits give high values
row,Structure (SMILES),inhibition
1,CCOP1(=S)c2c(C)nn(CCC#N)c2N=C(c2ccc(F)cc2)N1C (centres undefined),inactive: -5.88%
2,NC(=O)Nc1ccc([As](=O)(O)O)cc1,inactive: -7.89%
3,O=[As](O)(c1cccc(O)c1)c1cccc(O)c1,inactive: 0.666%
4,Cc1cccc(OCC(=O)OC2CN3CCC2CC3)c1 (centres undefined),inactive: -0.187%
5,O=[As](O)(O)c1cccnc1,inactive: 0.076%
6,CS(=O)(=O)c1ccc(Cl)c(NC(=O)COC(=O)C(O)(c2ccccc2)c2ccccc2)c1,inactive: 4.15%
7,O=C(OC1CN2CCC1CC2)c1ccc(Cl)cc1 (centres undefined),inactive: 0.816%
8,CCCOP(=S)(Nc1nc(N)cc(=O)[nH]1)OCCC,inactive: -5.61%
9,Cc1ccc(NCCc2c([N+](=O)[O-])cc([N+](=O)[O-])cc2[N+](=O)[O-])cc1,inactive: 4.01%
10,Nc1cccc2c([As](=O)(O)O)cccc12,inactive: 5.22%
11,COc1cc(I)ccc1[As](=O)(O)O,inactive: 6.59%
12,O=P1(N(CCCl)CCCl)Nc2ccccc2N1,inactive: -3.02%
13,COc1ccc(CN2/C(=N\P(=O)(Oc3ccccc3)Oc3ccccc3)Cc3ccccc3C2C2CC2)cc1 (centres undefined),inactive: -1.37%
14,O=C(OC1CN2CCC1CC2)C12CC3CC(CC(C3)C1)C2 (centres undefined),inactive: -3.01%
15,Cc1cc(=O)[nH]c(N[N+](=O)[O-])n1,inactive: 7.72%
16,COc1ccc(N/C(=N/P(=O)(N2CCOCC2)N2CCOCC2)N2CCOCC2)cc1,inactive: -0.003%
17,Cc1ccc(OP(=O)(Nc2ccc([N+](=O)[O-])cn2)Oc2ccc(C)cc2)cc1,inactive: 4.05%
18,O=[As](O)(c1ccc(O)cc1)c1ccccc1O,inactive: 1.69%
19,C[As](=O)(O)c1cccc(C(=O)O)c1,inactive: -5.19%
20,O=[N+]([O-])c1ccc(-c2cc([N+](=O)[O-])c(O)c([N+](=O)[O-])c2)cc1,inactive: -6.74%
21,CCN(CC)C(=S)SC(NC=O)C(Cl)(Cl)Cl (centres undefined),inactive: -4.25%
22,O=C(OC1CN2CCC1CC2)c1cccc2[nH]cnc12 (centres undefined),inactive: 0.161%
23,CC(C)c1ccc(OP(=O)(Nc2ccccn2)Oc2ccccc2F)cc1 (centres undefined),inactive: 1.83%
24,ClCCSc1nnc(-c2cccnc2)o1,inactive: 0.656%

row,Structure (SMILES),inhibition
1,CCCCOc1ccc(C(=O)NCC2(N3CCCCC3)CCCCC2)cc1OC,inactive: -1.68%
2,COP(=O)(OC)N1CC1c1ccccc1 (centres undefined),inactive: 2.67%
3,CC1CCNP(=O)(N(CCCl)CCCl)O1 (centres undefined),inactive: -0.842%
4,O=C(O)C(O)c1ccc(N(CCCl)CCCl)cc1 (centres undefined),inactive: -0.768%
5,CCOC(=O)Nc1ccc([As](=O)(O)O)c(O)c1,inactive: 1.76%
6,O=[N+]([O-])c1ccc(Nc2ccc(Oc3ccc([N+](=O)[O-])cc3[N+](=O)[O-])cc2)c([N+](=O)[O-])c1,inactive: 5.37%
7,O=C(Nc1ccncc1[N+](=O)[O-])c1ccc([N+](=O)[O-])cc1[N+](=O)[O-],inactive: -1.62%
8,O=C(O)C(=O)c1ccc(N(CCCl)CCCl)cc1,inactive: 1.18%
9,COP1(=S)c2c(C)nn(CCC#N)c2N=C(c2ccc(F)cc2)N1C (centres undefined),inactive: -3.07%
10,CCC(C)N(CC(C)C)C(=S)SC(NC(C)=O)C(Cl)(Cl)Cl (centres undefined),inactive: -0.752%
11,CCOC(=O)c1ccc(NC(=O)C(C)(CCl)SC)cc1 (centres undefined),inactive: -5.12%
12,O=C(OC1CN2CCC1CC2)c1cccc([N+](=O)[O-])c1 (centres undefined),inactive: -1.85%
13,CC(=O)N1C2C3N(C(C)=O)C1C1N(C(C)=O)C(C(N1C(C)=O)N3C(C)=O)N2C(C)=O,inactive: -2.02%
14,O=[N+]([O-])c1cccc2n[nH]nc12,inactive: -2.38%
15,CCc1nc2c(n1)c1c(non1O)c1c2no[n+]1[O-],inactive: -2.26%
16,COc1ccc(C2=NCC(CBr)S2)cc1 (centres undefined),inactive: -4.19%
17,CC(C)c1nc(Nc2ccccc2)n(P(=O)(N(C)C)N(C)C)n1,inactive: -7.18%
18,c1cc(-c2nn[nH]n2)ccc1-c1nn[nH]n1,inactive: -1.16%
19,CC1CCN(C(=O)Oc2c(Cl)cc(Cl)c3cccnc23)CC1,inactive: 5.33%
20,Nc1ccc([As](=O)(O)c2ccc(N)cc2)cc1,inactive: 5.34%
21,C[N+]1=C2C=CC=CC=C2SC12C([N+](=O)[O-])=CC([N+](=O)[O-])=C[C-]2[N+](=O)[O-] (centres undefined),inactive: -2.04%
22,O=C(Nc1cc([As](=O)(O)O)ccc1O)c1ccccc1,inactive: 1.42%
23,O=P1(N(CCCl)CCCl)OCCCS1 (centres undefined),inactive: 0.339%
24,O=[N+]([O-])c1cccc(NC2=NCC(CBr)S2)c1 (centres undefined),inactive: -3.3%

row,Structure (SMILES),inhibition
1,O=C(O)CNc1ccc([As](=O)(O)O)cc1,inactive: -7.53%
2,CCOP(=O)(Nc1ccccc1)OCC,inactive: -2.99%
3,CN(C(=O)Cc1ccc(Cl)c(Cl)c1)[C@H]1CCCC[C@@H]1N1CCCC1,inactive: -1.2%
4,O=C(O)c1ccccc1[As](=O)(O)O,inactive: 1.15%
5,CC(=O)Nc1ccc([As](=O)(O)O)cc1,inactive: 8.86%
6,CCCC1OP(N)(=O)OCC1CC (centres undefined),inactive: 3.98%
7,CN(C)P(=O)(N(C)C)n1c(Nc2ccccc2)nnc1-c1ccccc1,inactive: 3.57%
8,Nc1cccc2ccc([As](=O)(O)O)cc12,inactive: 4.69%
9,Cc1ccc(OP(=O)(Nc2nccs2)Oc2ccc(C)cc2)cc1,inactive: 4.34%
10,Clc1ccc(Cl)c(NC2=NCC(CBr)S2)c1 (centres undefined),inactive: -3.27%
11,CN1CCCC(OC(=O)C(c2ccccc2)c2ccccc2)C1 (centres undefined),inactive: 8.99%
12,CN(C(=O)Cc1ccc(Cl)c(Cl)c1)[C@H]1CCCC[C@H]1N1CCCC1,inactive: -1.48%
13,Cc1ccc(N/C(=N/P(=O)(N2CCOCC2)N2CCOCC2)N2CCOCC2)cc1,inactive: 12%
14,CC(C)CC(=O)NC(Sc1ccc(Cl)cc1)C(Cl)(Cl)Cl (centres undefined),inactive: -2.11%
15,Oc1ccccc1CNc1ccccn1,inactive: 3.88%
16,O=C(NC(Sc1ccncn1)C(Cl)(Cl)Cl)c1ccccc1 (centres undefined),inactive: 0.07%
17,CCc1cc(O)c([N+](=O)[O-])c(C)c1[N+](=O)[O-],inactive: -1.79%
18,O=P1(Nc2nc3ccc(Cl)cc3s2)COc2ccccc2O1 (centres undefined),inactive: -1.06%
19,CC(=O)Nc1ccc([As](=O)(O)O)c(O)c1,inactive: -4.75%
20,CC(=O)Nc1ccc(Oc2c([N+](=O)[O-])cc([N+](=O)[O-])cc2[N+](=O)[O-])cc1,inactive: -3.08%
21,CC(=O)c1ccc(N2CC2c2ccncc2)cc1 (centres undefined),inactive: 3.74%
22,Cc1ccccc1CN(C)C(=O)COC(=O)C(O)(c1ccccc1)c1ccccc1,inactive: -3.64%
23,C[C@@H]1C=CCP(=O)(Oc2ccccc2)O1 (some centres undefined),inactive: -4.6%
24,C[C@H]1OP(=O)(Oc2ccccc2)C[C@@H]2O[C@@H]21 (some centres undefined),inactive: 2.61%

row,Structure (SMILES),inhibition
1,O=P1(N(CCCl)CCCl)OCCC2CCCCN21 (centres undefined),inactive: 7.38%
2,CCNC(=S)/N=C(\N)N[N+](=O)[O-],inactive: 3.39%
3,Cc1ccc(NP(=O)(Oc2cccc(C)c2)Oc2cccc(C)c2)nc1,inactive: 4.01%
4,CC(NC(=O)COC(=O)C(O)(c1ccccc1)c1ccccc1)c1ccccc1 (centres undefined),inactive: -5.99%
5,CN(C)C(=O)Oc1noc2ccccc12,inactive: 1.31%
6,COC(=O)c1cc2c(s1)N=C(c1ccccc1)N(C)P2(=O)N1CCOCC1 (centres undefined),inactive: 3.19%
7,CC(=O)NC(SC(=S)N(CC(C)C)CC(C)C)C(Cl)(Cl)Cl (centres undefined),inactive: -4.34%
8,O=C(OC1CN2CCC1CC2)c1ccccc1 (centres undefined),inactive: -3.87%
9,CCC(=O)N1C2C3N(C(=O)CC)C1C1N(C(=O)CC)C(C(N1C(=O)CC)N3C(=O)CC)N2C(=O)CC,inactive: -5.64%
10,O=P(Nc1nc2ccccc2s1)(c1ccccc1)c1ccccc1,inactive: -2.12%
11,C[C@H]1OP(=O)(Oc2ccccc2)[C@H](O)[C@H](O)[C@H]1N=[N+]=[N-] (some centres undefined),inactive: 1.24%
12,Nc1ccc(CCCCOc2ccccc2)cc1,inactive: -3.81%
13,COc1ccc(N)c([N+](=O)[O-])c1[N+](=O)[O-],inactive: -1.11%
14,CN(C)C1(CNC(=O)c2ccc(Cl)c(S(N)(=O)=O)c2)CCCCC1,inactive: -5.65%
15,O=P(Nc1ccccn1)(c1ccc(Br)cc1)c1ccc(Br)cc1,inactive: 7.44%
16,Nc1ccc([As](=O)(O)c2ccc([N+](=O)[O-])cc2)cc1,inactive: 1.6%
17,O=C(OC1CN2CCC1CC2)c1cccc(Cl)c1 (centres undefined),inactive: -6.71%
18,CC(=O)NC(SC(=S)N(C)C)C(Cl)(Cl)Cl (centres undefined),inactive: -2.67%
19,O=[N+]([O-])c1ccc(O)c(/C=N/Nc2ccc([N+](=O)[O-])cc2[N+](=O)[O-])c1,inactive: 3.89%
20,O=[As](O)(c1ccccc1)c1ccc(O)cc1,inactive: -0.196%
21,c1nnnn1CCn1cnnn1,inactive: 0.156%
22,O=P(Nc1nccs1)(c1ccccc1)c1ccccc1,inactive: 4.57%
